In patent publication US9085576B2 (AMGEN INC., priority 2013, dated 2015) one finds IC50 data, which are given here for ten molecules.

Protein sequences, listed by entry. Tags and fused reporters are not part of them. Residues count along the entry.
UniProt P56817, 46-501, species assumed: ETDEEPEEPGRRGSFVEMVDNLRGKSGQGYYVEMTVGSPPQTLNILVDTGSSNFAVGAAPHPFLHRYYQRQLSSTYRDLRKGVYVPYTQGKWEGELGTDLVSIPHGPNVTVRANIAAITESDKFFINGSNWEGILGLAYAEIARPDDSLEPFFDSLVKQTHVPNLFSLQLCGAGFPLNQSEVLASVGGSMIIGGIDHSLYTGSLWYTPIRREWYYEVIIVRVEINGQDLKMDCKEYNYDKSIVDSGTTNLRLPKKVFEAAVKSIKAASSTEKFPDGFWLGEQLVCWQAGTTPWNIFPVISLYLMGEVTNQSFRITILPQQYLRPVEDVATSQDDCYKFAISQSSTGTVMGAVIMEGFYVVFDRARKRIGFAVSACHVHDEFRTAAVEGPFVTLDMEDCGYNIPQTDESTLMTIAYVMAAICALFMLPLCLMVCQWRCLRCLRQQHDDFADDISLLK

The test has as its target BACE (Homo sapiens (Human), UniProt P56817). As to the kind of experiment: In vitro BACE cell-based assay (Aβ40 in conditioned medium, sandwich ELISA). Conditions: read-out: BACE cell assay IC50.

Take `NC1=N[C@@](c2cc(N[C@H]3CCCc4cc(Br)cnc43)ccc2F)(C(F)F)[C@H]2C[C@H]2O1` (mixture of isomers) [Example 382, (1R,5S,6R)-5-(5-(((R)-3-bromo-5,6,7,8-tetrahydroquinolin-8-yl)amino)-2-fluorophenyl)-5-(difluoromethyl)-2-oxa-4-azabicyclo[4.1.0]hept-3-en-3-amine and (1R,5S,6R)-5-(5-(((S)-3-bromo-5,6,7,8-tetrahydroquinolin-8-yl)amino)-2-fluorophenyl)-5-(difluoromethyl)-2-oxa-4-azabicyclo[4.1.0]hept-3-en-3-amine]: the IC50 stood at 993 nM.

On to `NC1=N[C@@](c2cc(N[C@@H]3CCc4cc(Br)ccc43)ccc2F)(C(F)F)[C@H]2C[C@H]2O1.NC1=N[C@@](c2cc(N[C@H]3CCc4cc(Br)ccc43)ccc2F)(C(F)F)[C@H]2C[C@H]2O1` (mixture of isomers) [Example 384, (1R,5S,6R)-5-(5-(((R)-5-bromo-2,3-dihydro-1H-inden-1-yl)amino)-2-fluorophenyl)-5-(difluoromethyl)-2-oxa-4-azabicyclo[4.1.0]hept-3-en-3-amine and (1R,5S,6R)-5-(5-(((S)-5-bromo-2,3-dihydro-1H-inden-1-yl)amino)-2-fluorophenyl)-5-(difluoromethyl)-2-oxa-4-azabicyclo[4.1.0]hept-3-en-3-amine], for which the IC50 is 1370 nM.

For `NC1=N[C@@](c2cc(N[C@H](c3ccc(Cl)cn3)C(F)(F)F)ccc2F)(C(F)F)[C@H]2C[C@H]2O1` (mixture of isomers) [Example 422, (1R,5S,6R)-5-(5-(((R)-1-(5-chloropyridin-2-yl)-2,2,2-trifluoroethyl)amino)-2-fluorophenyl)-5-(difluoromethyl)-2-oxa-4-azabicyclo[4.1.0]hept-3-en-3-amine and (1R,5S,6R)-5-(5-(((S)-1-(5-chloropyridin-2-yl)-2,2,2-trifluoroethyl)amino-2-fluorophenyl)-5-(difluoromethyl)-2-oxa-4-azabicyclo[4.1.0]hept-3-en-3-amine], the IC50 was 4060 nM.

As for `NC1=N[C@@](c2cc(N[C@@H]3CCc4cc(Br)cnc43)ccc2F)(C(F)F)[C@H]2C[C@H]2O1` (single isomer, unassigned) [Example 380, (1R,5S,6R)-5-(5-(((R)-3-bromo-6,7-dihydro-5H-cyclopenta[b]pyridin-7-yl)amino)-2-fluorophenyl)-5-(difluoromethyl)-2-oxa-4-azabicyclo[4.1.0]hept-3-en-3-amine or (1R,5S,6R)-5-(5-(((S)-3-bromo-6,7-dihydro-5H-cyclopenta[b]pyridin-7-yl)amino)-2-fluorophenyl)-5-(difluoromethyl)-2-oxa-4-azabicyclo[4.1.0]hept-3-en-3-amine], the IC50 was 145 nM.

For `NC1=N[C@@](c2cc(N[C@H]3CCc4cc(Br)cnc43)ccc2F)(C(F)F)[C@H]2C[C@H]2O1` (single isomer, unassigned) [Example 381, (1R,5S,6R)-5-(5-(((S)-3-bromo-6,7-dihydro-5H-cyclopenta[b]pyridin-7-yl)amino)-2-fluorophenyl)-5-(difluoromethyl)-2-oxa-4-azabicyclo[4.1.0]hept-3-en-3-amine or (1R,5S,6R)-5-(5-(((R)-3-bromo-6,7-dihydro-5H-cyclopenta[b]pyridin-7-yl)amino)-2-fluorophenyl)-5-(difluoromethyl)-2-oxa-4-azabicyclo[4.1.0]hept-3-en-3-amine], the IC50 came out at 1670 nM.

With `CC#Cc1cncc(-c2ccc(F)c([C@@]3(CF)N=C(N)O[C@@H]4C[C@@H]43)c2)c1` [Example 431, (1(S,R),5(R,S),6(S,R))-5-(2-fluoro-5-(5-(prop-1-yn-1-yl)pyridin-3-yl)phenyl)-5-(fluoromethyl)-2-oxa-4-azabicyclo[4.1.0]hept-3-en-3-amine], the IC50 is 1590 nM.

For `CC#Cc1cncc(-c2cc([C@]3(CF)N=C(N)O[C@H]4C[C@H]43)c(F)cc2CO)c1` [Example 432, (4-(((1S,R),(5R,S),(6S,R))-3-amino-5-(fluoromethyl)-2-oxa-4-azabicyclo[4.1.0]hept-3-en-5-yl)-5-fluoro-2-(5-(prop-1-yn-1-yl)pyridin-3-yl)phenyl)methanol], the IC50 came to 3680 nM.

As for “(R)-4-((3-((1R,5S,6R)-3-amino-5-(difluoromethyl)-2-oxa-4-azabicyclo[4.1.0]hept-3-en-5-yl)-4-fluorophenyl)amino)chroman-7-carbonitrile and (S)-4-((3-((1R,5S,6R)-3-amino-5-(difluoromethyl)-2-oxa-4-azabicyclo[4.1.0]hept-3-en-5-yl)-4-fluorophenyl)amino)chroman-7-carbonitrile [Example 383]”, the IC50 came out at 352 nM.

Turning to “(R)-8-((3-((1R,5S,6R)-3-amino-5-(difluoromethyl)-2-oxa-4-azabicyclo[4.1.0]hept-3-en-5-yl)-4-fluorophenyl)amino)-5,6,7,8-tetrahydroquinoline-3-carbonitrile and (S)-8-((3-((1R,5S,6R)-3-amino-5-(difluoromethyl)-2-oxa-4-azabicyclo[4.1.0]hept-3-en-5-yl)-4-fluorophenyl)amino)-5,6,7,8-tetrahydroquinoline-3-carbonitrile [Example 403]”, the IC50 came to 677 nM.

In the case of “N-(3-((1R,5S,6R)-3- amino-5- (difluoromethyl)-2-oxa- 4-azabicyclo[4.1.0]hept- 3-en-5-yl)-4-fluoro-5- methylphenyl)-4-chloro- 2-(fluoromethyl) benzamide [Example 444]”, the IC50 was 31.3 nM.
